Test results published in PubChem BioAssay (NCI).
Some results for these compounds are left out of this collection, so the calls shown say nothing about other tests.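 Where inhibition never reached the appropriate level, the endpoint shown equals the highest concentration tested. Otherwise, values were interpolated linearly from a five-concentration, 48-hour dose response in 96-well plates. GI50 is the concentration that inhibits growth by half.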

Legend:
Assay in all cases: growth of human tumour cells (NCI), 48 h; in the data active means GI50 below about 0.43 µM; inactive means the rest
KM12 colon = tested on: KM12 colon
A498 renal = tested on: A498 renal
SF-268 CNS = tested on: SF-268 CNS
MDA-N = tested on: MDA-N
RPMI-8226 leukemia = tested on: RPMI-8226 leukemia
UACC-257 melanoma = tested on: UACC-257 melanoma
A549 NSCLC = tested on: A549 NSCLC
HOP-62 NSCLC = tested on: HOP-62 NSCLC
DU-145 prostate = tested on: DU-145 prostate
UACC-62 melanoma = tested on: UACC-62 melanoma
IGROV1 ovarian = tested on: IGROV1 ovarian
NCI/ADR-RES ovarian = tested on: NCI/ADR-RES ovarian
K-562 leukemia = tested on: K-562 leukemia
HT29 colon = tested on: HT29 colon
SK-MEL-2 melanoma = tested on: SK-MEL-2 melanoma
MALME-3M melanoma = tested on: MALME-3M melanoma
NCI-H226 lung = tested on: NCI-H226 lung
RXF 393 renal = tested on: RXF 393 renal
PC-3 prostate = tested on: PC-3 prostate
SF-295 CNS = tested on: SF-295 CNS
NCI-H460 lung = tested on: NCI-H460 lung
SK-MEL-28 melanoma = tested on: SK-MEL-28 melanoma
SNB-19 CNS = tested on: SNB-19 CNS
U251 CNS = tested on: U251 CNS
OVCAR-4 ovarian = tested on: OVCAR-4 ovarian
MCF7 breast = tested on: MCF7 breast
SK-MEL-5 melanoma = tested on: SK-MEL-5 melanoma
HCT-15 colon = tested on: HCT-15 colon
OVCAR-5 ovarian = tested on: OVCAR-5 ovarian
COLO 205 colon = tested on: COLO 205 colon
786-0 renal = tested on: 786-0 renal
T-47D breast = tested on: T-47D breast
TK-10 renal = tested on: TK-10 renal
SR leukemia = tested on: SR leukemia
CAKI-1 renal = tested on: CAKI-1 renal
HL-60(TB) leukemia = tested on: HL-60(TB) leukemia
HCC-2998 colon = tested on: HCC-2998 colon
CCRF-CEM leukemia = tested on: CCRF-CEM leukemia
HCT-116 colon = tested on: HCT-116 colon
SF-539 CNS = tested on: SF-539 CNS
OVCAR-8 ovarian = tested on: OVCAR-8 ovarian
SK-OV-3 ovarian = tested on: SK-OV-3 ovarian
LOX IMVI melanoma = tested on: LOX IMVI melanoma
MDA-MB-435 = tested on: MDA-MB-435
M14 melanoma = tested on: M14 melanoma
SN12C renal = tested on: SN12C renal
OVCAR-3 ovarian = tested on: OVCAR-3 ovarian
MOLT-4 leukemia = tested on: MOLT-4 leukemia
NCI-H522 lung = tested on: NCI-H522 lung
SW-620 colon = tested on: SW-620 colon
NCI-H23 lung = tested on: NCI-H23 lung
UO-31 renal = tested on: UO-31 renal
NCI-H322M lung = tested on: NCI-H322M lung
MDA-MB-231 breast = tested on: MDA-MB-231 breast
SNB-75 CNS = tested on: SNB-75 CNS
ACHN renal = tested on: ACHN renal
EKVX NSCLC = tested on: EKVX NSCLC

Measured: GI50

O=C(CCCN1CCC(OC(=O)C(O)(c2ccccc2)C2CCCC2)CC1)c1ccccc1 (configuration not stated)
inactive: KM12 colon 15.6 µM | A498 renal 18.8 µM | SF-268 CNS 18.6 µM | MDA-N 20.7 µM | RPMI-8226 leukemia 21.9 µM | UACC-257 melanoma 16.7 µM | A549 NSCLC 18.6 µM | HOP-62 NSCLC 18.5 µM | DU-145 prostate 17.4 µM | UACC-62 melanoma 18.3 µM | IGROV1 ovarian 18.2 µM | NCI/ADR-RES ovarian 15.4 µM | K-562 leukemia 15.9 µM | HT29 colon 3.44 µM | SK-MEL-2 melanoma 17 µM | MALME-3M melanoma 14.1 µM | NCI-H226 lung 16.7 µM | RXF 393 renal 14 µM | PC-3 prostate 14.6 µM | SF-295 CNS 17.8 µM | NCI-H460 lung 20.2 µM | SK-MEL-28 melanoma 19.8 µM | SNB-19 CNS 17.8 µM | U251 CNS 18.8 µM | OVCAR-4 ovarian 14.8 µM | MCF7 breast 19.6 µM | SK-MEL-5 melanoma 16.2 µM | HCT-15 colon 15.9 µM | OVCAR-5 ovarian 15 µM | COLO 205 colon 12.6 µM | 786-0 renal 17.1 µM | T-47D breast 20.2 µM | TK-10 renal 16 µM | SR leukemia 17.4 µM | CAKI-1 renal 22 µM | HL-60(TB) leukemia 18 µM | HCC-2998 colon 16.5 µM | CCRF-CEM leukemia 18.9 µM | HCT-116 colon 14.7 µM | SF-539 CNS 17.7 µM | OVCAR-8 ovarian 17 µM | SK-OV-3 ovarian 22.9 µM | LOX IMVI melanoma 14.2 µM | MDA-MB-435 = 18 µM | M14 melanoma 13.9 µM | SN12C renal 16.5 µM | OVCAR-3 ovarian 14 µM | MOLT-4 leukemia 22.2 µM | NCI-H522 lung 23.5 µM | SW-620 colon 19 µM | NCI-H23 lung 17.1 µM | UO-31 renal 9.51 µM | NCI-H322M lung 16.5 µM | MDA-MB-231 breast 16.3 µM | SNB-75 CNS 15.9 µM | ACHN renal 15.8 µM | EKVX NSCLC 18.2 µM
